Test results published in ChEMBL document CHEMBL1131078, “Small molecular probes for G-protein-coupled C5a receptors: conformationally constrained antagonists derived from the C terminus of the human plasma protein C5a” (J Med Chem, 1998).

Target: T1, C5a anaphylatoxin chemotactic receptor 1 (Homo sapiens, UniProt P21730)
T1 sequence (P21730 whole entry): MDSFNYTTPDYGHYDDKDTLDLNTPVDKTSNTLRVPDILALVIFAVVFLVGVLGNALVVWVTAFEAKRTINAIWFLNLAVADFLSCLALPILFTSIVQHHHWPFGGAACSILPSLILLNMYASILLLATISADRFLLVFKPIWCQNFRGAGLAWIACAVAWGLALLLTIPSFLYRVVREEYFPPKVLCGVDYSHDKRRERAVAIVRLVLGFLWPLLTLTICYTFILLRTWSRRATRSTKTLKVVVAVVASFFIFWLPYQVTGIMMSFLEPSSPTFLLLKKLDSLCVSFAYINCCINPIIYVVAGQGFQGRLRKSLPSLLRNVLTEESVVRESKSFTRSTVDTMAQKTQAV
Test: 50% reduction in myeloperoxidase secretion from human PMNs mediated by 100 nM C5a

CC(=O)N[C@@H](Cc1ccccc1)C(=O)N[C@H]1CCCCNC(=O)[C@H](CCCNC(=N)N)NC(=O)[C@H](Cc2c[nH]c3ccccc23)NC(=O)[C@@H](CC2CCCCC2)NC(=O)[C@@H]2CCCN2C1=O
IC50: 90 nM
